Values quoted from earlier work in publication PMC8788626 (Lung cancer (Amsterdam, Netherlands), 2017).

Test system: EGFR-mutant lung cancer
Conditions: first-line therapy, standard daily dosing, ARCHER 1050; cited from earlier work

SMILES: COc1cc2ncnc(Nc3ccc(F)c(Cl)c3)c2cc1OCCCN1CCOCC1 [gefitinib]
- median progression-free survival: 9.2 months
